# Apparent affinities of Ab-14 variants for a coronavirus HR2 peptide

All variants were tested on one target, the spike HR2 peptide PDVDLGDISGINAS (SARS-CoV-2).

Ab-14 is the parent antibody, in scFv form: VH, then three GGGGS repeats, then VL. The light chain is unchanged in all variants.
VH: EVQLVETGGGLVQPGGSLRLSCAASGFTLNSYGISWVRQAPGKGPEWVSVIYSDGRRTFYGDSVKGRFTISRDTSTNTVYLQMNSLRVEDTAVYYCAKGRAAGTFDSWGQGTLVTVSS
VL: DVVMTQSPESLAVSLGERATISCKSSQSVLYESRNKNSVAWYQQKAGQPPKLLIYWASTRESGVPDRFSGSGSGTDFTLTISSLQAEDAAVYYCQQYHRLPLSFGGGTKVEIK

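Library AAYL49 holds single substitutions and randomly drawn double and triple substitutions in the CDRs. The scFvs were displayed on barcoded MATa yeast, the peptide on MATalpha yeast. The frequency of each diploid, read from paired DNA barcodes, reflects how well the two displayed proteins bind. Each replicate has its own calibration line, from reference interactions of the BCL2 family. The assay was run in three technical replicates.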

Sequences are complete VH domains.
The read-out is the apparent dissociation constant on a log10 scale (nM): the lower, the stronger.
A mean of the replicates is given; it leaves out those without a signal.
"nd" means that the variant was in the library but no mating with the target was seen in that replicate; the authors take this as a sign of poor binding, and no number exists.
For reference, the parent read 0.65 as the reference entry and 4.11 (one replicate of three) as a member of this library.
Empty control strains, which show no peptide, gave a signal in 15% of pairings with library AAYL49; the median was 4.06 and 95% of these signals were weaker than 2.83. No background was subtracted. For each scFv, signals with the empty controls are counted beside the result, with their mean in brackets.

VH,"replicates, log10 nM",mean log10 Kd (nM),control signals
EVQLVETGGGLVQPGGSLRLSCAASDFTLNSYGNSWVRQAPGKGPEWVSVIYSDGRRTFYGDYVKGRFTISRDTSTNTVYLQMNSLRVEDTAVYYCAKGRAAGTFDSWGQGTLVTVSS,nd / nd / nd,nd,2 of 9 (4.55)
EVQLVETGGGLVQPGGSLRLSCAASGFTLPPYGISWVRQAPGKGPEWVSVIYSDGRRTFYGDSVKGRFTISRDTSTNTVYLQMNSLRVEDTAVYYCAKGRATGTFDSWGQGTLVTVSS,4.09 / nd / nd,4.09,0 of 9
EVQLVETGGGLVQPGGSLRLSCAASGFTLNSYGISWVRQAPGKGPEWVSVIYSDGRRSFYGDYVKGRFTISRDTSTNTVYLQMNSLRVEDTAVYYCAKGRAAGTFSSWGQGTLVTVSS,nd / nd / nd,nd,0 of 9
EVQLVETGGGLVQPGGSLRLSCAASGFTLNSYGISWVRQAPGKGPEWVSVIYSDGYRTFDGDSVKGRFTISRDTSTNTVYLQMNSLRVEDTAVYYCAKGTAAGTFDSWGQGTLVTVSS,nd / nd / nd,nd,0 of 9
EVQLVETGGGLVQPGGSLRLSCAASGFTLNHYGISWVRQAPGKGPEWVSVIYSDGRRTFYGDSVKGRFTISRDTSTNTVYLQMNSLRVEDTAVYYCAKGRHAGTLDSWGQGTLVTVSS,nd / nd / nd,nd,0 of 9
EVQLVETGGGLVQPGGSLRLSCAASGFVLNSYGISWVRQAPGKGPEWVSVIYSDDRLTFYGDSVKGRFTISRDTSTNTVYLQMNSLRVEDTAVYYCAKGRAAGTFDSWGQGTLVTVSS,nd / nd / nd,nd,0 of 9
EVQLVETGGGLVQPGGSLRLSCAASGFTLNSYGISWVRQAPGKGPEWVSVIYSDRRRTFYGDSEKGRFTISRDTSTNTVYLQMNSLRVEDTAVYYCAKGRAAGTFDSWGQGTLVTVSS,nd / nd / nd,nd,1 of 9 (3.63)
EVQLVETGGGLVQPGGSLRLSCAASGFTLNSYGISWVRQAPGKGPEWVSVIYWDGRPTFYGCSVKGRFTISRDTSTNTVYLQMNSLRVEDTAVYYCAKGRAAGTFDSWGQGTLVTVSS,nd / nd / nd,nd,0 of 9
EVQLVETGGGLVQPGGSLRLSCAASGFTLNSYGISWVRQAPGKGPEWVSVIYSDGRRTFEGDSVKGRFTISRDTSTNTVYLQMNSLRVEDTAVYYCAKGIAAGTFDFWGQGTLVTVSS,nd / 4.30 / nd,4.30,6 of 9 (4.50)
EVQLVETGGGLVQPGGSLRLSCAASGFTLNSYGIIWVRQAPGKGPEWVSVIYSDNRRTFYGDSVKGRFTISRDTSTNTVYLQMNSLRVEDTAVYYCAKGRAAGTFKSWGQGTLVTVSS,nd / nd / nd,nd,1 of 9 (3.85)
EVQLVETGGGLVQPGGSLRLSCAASGFTLNVYGISWVRQAPGKGPEWVSVIYSDGRRTFYGQSVKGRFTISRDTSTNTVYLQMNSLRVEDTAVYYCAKGRAAKTFDSWGQGTLVTVSS,3.31 / nd / 3.86,3.58,1 of 9 (4.18)
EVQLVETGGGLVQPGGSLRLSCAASGFTLNSYGISWVRQAPGKGPEWVSVIYSDGRRTFAPDSVKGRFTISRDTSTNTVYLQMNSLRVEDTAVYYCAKGRAAGQFDSWGQGTLVTVSS,nd / nd / nd,nd,0 of 9
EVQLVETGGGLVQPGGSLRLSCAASGFTLNSYGISWVRQAPGKGPEWVSVIYSDGRREFYGFSVDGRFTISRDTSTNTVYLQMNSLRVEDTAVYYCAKGRAAGTFDSWGQGTLVTVSS,4.14 / 3.34 / 4.09,3.86,8 of 9 (4.86)
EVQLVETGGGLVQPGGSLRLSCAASGGTLNSYGISWVRQAPGKGPEWVSVIYSDGRRTFYGDSVGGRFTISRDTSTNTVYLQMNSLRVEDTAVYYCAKNRAAGTFDSWGQGTLVTVSS,4.51 / 4.01 / nd,4.26,3 of 9 (3.60)

The first 2 variants above that were never detected:

VH,"replicates, log10 nM",mean log10 Kd (nM),control signals
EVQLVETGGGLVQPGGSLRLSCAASDFTLNSYGNSWVRQAPGKGPEWVSVIYSDGRRTFYGDYVKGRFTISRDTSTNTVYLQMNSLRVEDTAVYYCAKGRAAGTFDSWGQGTLVTVSS,nd / nd / nd,nd,2 of 9 (4.55)
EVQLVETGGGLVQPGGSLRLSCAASGFTLNSYGISWVRQAPGKGPEWVSVIYSDGRRSFYGDYVKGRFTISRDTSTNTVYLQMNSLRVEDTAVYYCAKGRAAGTFSSWGQGTLVTVSS,nd / nd / nd,nd,0 of 9

From the AlphaSeq antibody data of Engelhart et al. 2022 (doi:10.1038/s41597-022-01779-4), copy in the FLAb collection.